The source made the active and inactive calls. No cut-off for these calls is given here.
Target: Leukotriene B4 receptor 1 (Homo sapiens) (UniProt Q15722)
Assay: Agonist activity at human BLT1 overexpressed in CHO-K1 cells assessed as accumulation of inositol monophosphate measured after 90 mins by HTRF assay
Assay type: functional, cell-based
Method in brief: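 IP-One accumulation assay run in agonist mode, read-out inositol monophosphate as a measure of Gq activation; LTB₄ as reference agonist and positive control. EC₅₀ determinations done at least twice (n = 2).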

Protein sequences, listed by entry. Tags and fused reporters are not part of them. Lines headed by an entry give the natural chain unless they say otherwise; changes in a name come on top.
UniProt Q15722: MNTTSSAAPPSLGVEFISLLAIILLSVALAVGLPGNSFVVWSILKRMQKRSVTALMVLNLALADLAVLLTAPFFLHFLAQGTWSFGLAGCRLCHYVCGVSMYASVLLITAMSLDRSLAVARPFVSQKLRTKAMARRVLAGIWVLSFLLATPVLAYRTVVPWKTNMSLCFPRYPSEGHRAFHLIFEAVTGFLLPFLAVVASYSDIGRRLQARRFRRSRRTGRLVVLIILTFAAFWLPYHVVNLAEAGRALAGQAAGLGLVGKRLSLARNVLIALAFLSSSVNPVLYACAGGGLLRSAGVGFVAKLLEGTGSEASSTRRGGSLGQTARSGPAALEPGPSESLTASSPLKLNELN

Activity, inactive:
O=C(O)c1ccccc1-c1ccc(CN2C(=O)C3(CCCC3)N=C2Cc2ccccc2)cc1
CCCCC1NC(C)(C)C(=O)N1Cc1ccc(-c2ccccc2-c2nnn[nH]2)cc1 (stereo not drawn)
CCCCC1=NC2(CCCC2)C(=O)N1Cc1ccc(-c2ccccc2C(=O)O)cc1

Reference: ChEMBL document CHEMBL4837242, “Discovery of Irbesartan Derivatives as BLT2 Agonists by Virtual Screening” (ACS Med Chem Lett, 2021)
